The source of these data is patent US12318477B2, “Injectable and inhalable formulations” (CYBIN UK LTD, priority 2021, dated 2025).

The data set in a line: Stability of Example 10 formulations after storage for 3 months (related substances). As to conditions: Example 10 formulation (25 mg/mL as free base, pH 6), limit of quantitation ≥0.05% w/w.

For `CN(C)CCc1c[nH]c2ccccc12.O=C(O)/C=C/C(=O)O` [SPL026, N,N-dimethyltryptamine (DMT) fumarate salt], the related substances result reads like this: (3 months storage at 2-8° C.) “no related substances above the limit of quantitation”; (3 months storage at 25° C./60% RH) “no related substances above the limit of quantitation”; (T=0) “no related substances above the limit of quantitation”.
